Reference: paper PMC12251161, “Crucian Carp-Derived ACE-Inhibitory Peptides with In Vivo Antihypertensive Activity: Insights into Bioactivity, Mechanism, and Safety” (Molecules, 2025)

Tested on: bradykinin
Experiment: Bradykinin level in SHRs (ELISA)
Format: in vivo, spontaneously hypertensive rats (SHRs)
Conditions: captopril 12 mg/kg oral, plasma, n = 6, model group 61.11 ± 5.07, normotensive control 92.45 ± 8.94

Question: With `C[C@H](CS)C(=O)N1CCC[C@H]1C(=O)O` [captopril] as the compound, how does the BK concentration read?
Answer: 71.81 ± 5.87 pg/mL
